Values quoted from earlier work, collected in paper PMC9917132, “Tenebrio molitor as a Simple and Cheap Preclinical Pharmacokinetic and Toxicity Model” (International Journal of Molecular Sciences, 2023).

Tested on: Mice
Details: cited from earlier work

CC1(C)S[C@@H]2[C@H](NC(=O)[C@H](N)c3ccc(O)cc3)C(=O)N2[C@H]1C(=O)O [Amoxicillin]
LD50 Mice ip: 3590 mg/kg
